PMC8328003 (ACS chemical neuroscience, 2021)

Chains of the proteins cited; added tags and fusions are not shown. Lines headed by an entry give the natural chain unless they say otherwise; changes in a name come on top.
UniProt P35372, whole entry: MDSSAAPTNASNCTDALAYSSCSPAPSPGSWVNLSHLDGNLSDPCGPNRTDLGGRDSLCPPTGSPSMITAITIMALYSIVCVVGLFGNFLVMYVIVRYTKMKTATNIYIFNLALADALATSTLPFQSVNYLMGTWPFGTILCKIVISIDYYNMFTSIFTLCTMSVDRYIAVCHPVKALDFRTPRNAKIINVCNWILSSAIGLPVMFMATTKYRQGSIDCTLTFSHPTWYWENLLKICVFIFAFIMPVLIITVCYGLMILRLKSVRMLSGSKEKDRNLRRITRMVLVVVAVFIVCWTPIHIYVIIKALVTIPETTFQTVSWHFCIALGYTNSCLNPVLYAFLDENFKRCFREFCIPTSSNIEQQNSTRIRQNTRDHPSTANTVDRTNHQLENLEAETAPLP
UniProt P41145: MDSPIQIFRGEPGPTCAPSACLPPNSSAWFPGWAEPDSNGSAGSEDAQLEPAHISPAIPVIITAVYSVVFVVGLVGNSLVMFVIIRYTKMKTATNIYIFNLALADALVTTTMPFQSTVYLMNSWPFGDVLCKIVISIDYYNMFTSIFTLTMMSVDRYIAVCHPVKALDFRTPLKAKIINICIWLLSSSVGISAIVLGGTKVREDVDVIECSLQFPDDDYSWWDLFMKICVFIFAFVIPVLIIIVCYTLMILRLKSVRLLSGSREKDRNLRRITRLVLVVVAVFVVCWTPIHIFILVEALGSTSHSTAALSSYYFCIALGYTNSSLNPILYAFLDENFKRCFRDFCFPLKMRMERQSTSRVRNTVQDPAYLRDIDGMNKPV
UniProt P08913, whole entry: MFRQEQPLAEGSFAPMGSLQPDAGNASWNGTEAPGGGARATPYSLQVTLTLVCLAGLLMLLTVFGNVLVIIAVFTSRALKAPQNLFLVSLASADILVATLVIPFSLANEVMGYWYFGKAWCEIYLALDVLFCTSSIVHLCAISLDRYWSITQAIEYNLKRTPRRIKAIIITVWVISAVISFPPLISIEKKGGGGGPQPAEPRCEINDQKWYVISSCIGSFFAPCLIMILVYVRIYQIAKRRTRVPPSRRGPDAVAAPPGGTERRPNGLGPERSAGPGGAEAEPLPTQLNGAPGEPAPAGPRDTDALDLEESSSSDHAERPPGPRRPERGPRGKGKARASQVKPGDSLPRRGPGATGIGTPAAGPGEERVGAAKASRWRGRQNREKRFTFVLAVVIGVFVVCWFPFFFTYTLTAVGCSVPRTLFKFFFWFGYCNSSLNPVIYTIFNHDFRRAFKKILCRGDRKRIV
UniProt P31645, whole entry: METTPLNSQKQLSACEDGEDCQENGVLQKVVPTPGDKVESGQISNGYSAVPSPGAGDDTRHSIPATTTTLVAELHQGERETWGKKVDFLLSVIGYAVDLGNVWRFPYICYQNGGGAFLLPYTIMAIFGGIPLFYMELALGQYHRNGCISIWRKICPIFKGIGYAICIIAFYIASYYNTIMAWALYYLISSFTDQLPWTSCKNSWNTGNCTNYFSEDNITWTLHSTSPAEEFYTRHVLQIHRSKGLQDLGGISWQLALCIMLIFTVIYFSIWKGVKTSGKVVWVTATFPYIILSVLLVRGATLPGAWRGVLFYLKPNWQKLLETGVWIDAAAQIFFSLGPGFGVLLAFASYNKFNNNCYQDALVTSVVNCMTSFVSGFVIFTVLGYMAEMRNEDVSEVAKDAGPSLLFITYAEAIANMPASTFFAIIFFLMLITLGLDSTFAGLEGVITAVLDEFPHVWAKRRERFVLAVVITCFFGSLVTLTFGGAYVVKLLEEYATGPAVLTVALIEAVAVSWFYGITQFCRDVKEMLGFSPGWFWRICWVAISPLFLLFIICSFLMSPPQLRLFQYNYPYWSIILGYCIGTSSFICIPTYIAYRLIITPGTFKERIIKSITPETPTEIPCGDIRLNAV
UniProt Q01959, whole entry: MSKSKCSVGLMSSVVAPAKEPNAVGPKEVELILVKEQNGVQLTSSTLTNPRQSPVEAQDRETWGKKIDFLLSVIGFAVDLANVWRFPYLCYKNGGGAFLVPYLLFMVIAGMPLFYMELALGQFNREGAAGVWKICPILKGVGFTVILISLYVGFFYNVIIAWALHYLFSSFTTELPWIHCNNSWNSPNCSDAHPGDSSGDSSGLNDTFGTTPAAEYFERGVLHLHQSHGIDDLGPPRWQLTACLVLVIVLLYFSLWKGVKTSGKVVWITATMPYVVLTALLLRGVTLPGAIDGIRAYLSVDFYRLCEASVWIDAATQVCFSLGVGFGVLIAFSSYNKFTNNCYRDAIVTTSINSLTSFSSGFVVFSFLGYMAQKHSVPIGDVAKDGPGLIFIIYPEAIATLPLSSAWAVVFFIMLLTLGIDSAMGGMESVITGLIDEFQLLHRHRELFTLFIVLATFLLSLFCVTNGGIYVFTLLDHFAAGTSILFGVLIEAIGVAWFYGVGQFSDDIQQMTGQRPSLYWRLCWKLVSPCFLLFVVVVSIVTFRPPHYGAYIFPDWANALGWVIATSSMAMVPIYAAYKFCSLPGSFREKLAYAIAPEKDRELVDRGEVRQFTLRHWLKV
UniProt P08908, whole entry: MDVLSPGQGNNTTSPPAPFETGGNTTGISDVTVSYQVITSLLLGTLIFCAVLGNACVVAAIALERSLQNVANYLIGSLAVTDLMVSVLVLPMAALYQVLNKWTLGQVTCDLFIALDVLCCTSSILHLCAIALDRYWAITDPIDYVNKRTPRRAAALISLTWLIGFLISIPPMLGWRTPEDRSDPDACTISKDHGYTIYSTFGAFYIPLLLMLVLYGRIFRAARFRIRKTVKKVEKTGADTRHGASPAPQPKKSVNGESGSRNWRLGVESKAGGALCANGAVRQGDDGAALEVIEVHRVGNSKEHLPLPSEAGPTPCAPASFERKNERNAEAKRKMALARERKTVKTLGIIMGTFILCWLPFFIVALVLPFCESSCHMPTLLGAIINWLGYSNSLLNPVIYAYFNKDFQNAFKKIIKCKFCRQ
UniProt P25021, whole entry: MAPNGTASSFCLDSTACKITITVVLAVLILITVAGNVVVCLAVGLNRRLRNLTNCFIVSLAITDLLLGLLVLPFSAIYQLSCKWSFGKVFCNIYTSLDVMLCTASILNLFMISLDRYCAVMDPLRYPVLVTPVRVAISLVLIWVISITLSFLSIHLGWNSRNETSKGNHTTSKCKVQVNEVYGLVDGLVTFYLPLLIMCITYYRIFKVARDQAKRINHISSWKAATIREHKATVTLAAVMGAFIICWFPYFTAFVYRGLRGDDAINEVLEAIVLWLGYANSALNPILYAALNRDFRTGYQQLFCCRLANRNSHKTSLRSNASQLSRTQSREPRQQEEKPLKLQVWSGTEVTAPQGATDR
UniProt P35368, whole entry: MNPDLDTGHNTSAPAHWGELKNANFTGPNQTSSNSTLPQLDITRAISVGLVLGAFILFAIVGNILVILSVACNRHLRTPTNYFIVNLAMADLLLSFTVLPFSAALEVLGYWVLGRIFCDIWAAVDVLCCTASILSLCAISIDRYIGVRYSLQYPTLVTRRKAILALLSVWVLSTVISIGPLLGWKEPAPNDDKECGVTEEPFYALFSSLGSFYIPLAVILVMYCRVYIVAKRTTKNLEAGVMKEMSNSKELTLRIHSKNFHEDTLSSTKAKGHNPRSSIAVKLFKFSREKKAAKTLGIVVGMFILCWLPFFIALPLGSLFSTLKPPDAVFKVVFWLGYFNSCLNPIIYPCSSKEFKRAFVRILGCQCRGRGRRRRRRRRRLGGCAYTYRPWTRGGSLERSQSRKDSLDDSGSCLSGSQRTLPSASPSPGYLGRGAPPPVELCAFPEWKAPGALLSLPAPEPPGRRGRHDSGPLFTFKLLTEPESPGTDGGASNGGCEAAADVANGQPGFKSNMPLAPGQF
UniProt P18089, whole entry: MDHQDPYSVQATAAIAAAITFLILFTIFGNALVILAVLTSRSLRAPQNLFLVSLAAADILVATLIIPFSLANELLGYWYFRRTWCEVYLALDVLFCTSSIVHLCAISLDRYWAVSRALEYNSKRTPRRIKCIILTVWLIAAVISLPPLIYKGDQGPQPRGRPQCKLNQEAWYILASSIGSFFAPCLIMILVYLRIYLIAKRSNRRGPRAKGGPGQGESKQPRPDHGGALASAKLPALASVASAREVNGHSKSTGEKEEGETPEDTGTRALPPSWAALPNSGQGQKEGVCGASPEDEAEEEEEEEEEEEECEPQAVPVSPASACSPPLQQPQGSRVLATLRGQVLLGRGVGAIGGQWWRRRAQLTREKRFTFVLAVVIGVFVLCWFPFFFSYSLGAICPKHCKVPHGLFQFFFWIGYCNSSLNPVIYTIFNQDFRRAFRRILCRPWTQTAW
UniProt P18825, whole entry: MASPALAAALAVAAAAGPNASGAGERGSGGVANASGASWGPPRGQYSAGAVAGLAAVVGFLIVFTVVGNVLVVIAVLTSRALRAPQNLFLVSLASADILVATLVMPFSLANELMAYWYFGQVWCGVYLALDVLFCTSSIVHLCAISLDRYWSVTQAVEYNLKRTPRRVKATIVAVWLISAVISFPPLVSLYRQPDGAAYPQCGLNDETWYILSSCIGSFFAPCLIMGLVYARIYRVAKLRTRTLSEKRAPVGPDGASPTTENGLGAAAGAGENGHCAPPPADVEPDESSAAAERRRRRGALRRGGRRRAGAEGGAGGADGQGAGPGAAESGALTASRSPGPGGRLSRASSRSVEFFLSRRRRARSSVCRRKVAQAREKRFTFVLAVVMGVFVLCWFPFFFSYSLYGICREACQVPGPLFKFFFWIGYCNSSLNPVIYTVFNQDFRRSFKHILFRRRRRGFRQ

Key:
[1] = target: human mu opioid receptor (hMOR) (Homo sapiens, UniProt P35372); type: cell-based; conditions: read-out: EC50 Gi-1 activation hMOR
hKOR = hKOR (Homo sapiens, UniProt P41145); experiment: NIMH-PDSP radioligand binding; conditions: read-out: affinity Ki hKOR
hα2A = hα2A (Homo sapiens, UniProt P08913); experiment: NIMH-PDSP radioligand binding; conditions: read-out: affinity Ki hα2A
hSERT = hSERT (Homo sapiens, UniProt P31645); experiment: NIMH-PDSP radioligand binding; conditions: read-out: affinity Ki hSERT
hDAT = hDAT (Homo sapiens, UniProt Q01959); experiment: NIMH-PDSP radioligand binding; conditions: read-out: affinity Ki hDAT
h5HT1A = h5HT1A (Homo sapiens, UniProt P08908); experiment: NIMH-PDSP radioligand binding; conditions: read-out: affinity Ki h5HT1A
hH2 = hH2 (Homo sapiens, UniProt P25021); experiment: NIMH-PDSP radioligand binding; conditions: read-out: affinity Ki hH2
hα1A = target: T1, hα1A (Homo sapiens, UniProt P35348); experiment: NIMH-PDSP radioligand binding; conditions: read-out: affinity Ki hα1A
T1 sequence (P35348 1-466): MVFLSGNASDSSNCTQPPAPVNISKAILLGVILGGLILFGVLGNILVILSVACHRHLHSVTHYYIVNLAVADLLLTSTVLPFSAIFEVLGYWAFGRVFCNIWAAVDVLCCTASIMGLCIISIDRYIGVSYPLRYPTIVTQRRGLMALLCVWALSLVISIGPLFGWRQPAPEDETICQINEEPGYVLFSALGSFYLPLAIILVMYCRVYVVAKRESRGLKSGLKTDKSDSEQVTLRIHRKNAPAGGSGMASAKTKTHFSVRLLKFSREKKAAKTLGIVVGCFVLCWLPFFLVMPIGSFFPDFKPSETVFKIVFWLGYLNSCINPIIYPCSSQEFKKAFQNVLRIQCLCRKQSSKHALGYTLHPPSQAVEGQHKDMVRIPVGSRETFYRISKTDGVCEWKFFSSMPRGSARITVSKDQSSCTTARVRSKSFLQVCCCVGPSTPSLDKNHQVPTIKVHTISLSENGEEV

hα1B = hα1B (Homo sapiens, UniProt P35368); experiment: NIMH-PDSP radioligand binding; conditions: read-out: affinity Ki hα1B
hα2B = hα2B (Homo sapiens, UniProt P18089); experiment: NIMH-PDSP radioligand binding; conditions: read-out: affinity Ki hα2B
hα2C = hα2C (Homo sapiens, UniProt P18825); experiment: NIMH-PDSP radioligand binding; conditions: read-out: affinity Ki hα2C
MOR = conditions: read-out: binding affinity at MOR; cited from earlier work

corynantheidine showed an EC50 [1] of 0.0672 µM, a Ki (hKOR) of 2.11 µM and a Ki (hα2A) of 0.074 µM. It also gave a Ki (hSERT) of 2.61 µM, a Ki (hDAT) of 3.92 µM and a Ki (h5HT1A) of 1.16 µM. The Ki (hH2) was 5.13 µM, the Ki (hα1A) was 0.397 µM and the Ki (hα1B) was 3.3 µM. The Ki (hα2B) was 1.54 µM, the Ki (hα2C) was 0.269 µM and the Ki (MOR) was 0.118 µM.
